Results as given in PMC9555642 (PLoS ONE, 2022).

Amino acid sequences for entries named in this document (tags omitted). A change or cut given only in a name is not applied to a line headed by its entry.
UniProt P56524: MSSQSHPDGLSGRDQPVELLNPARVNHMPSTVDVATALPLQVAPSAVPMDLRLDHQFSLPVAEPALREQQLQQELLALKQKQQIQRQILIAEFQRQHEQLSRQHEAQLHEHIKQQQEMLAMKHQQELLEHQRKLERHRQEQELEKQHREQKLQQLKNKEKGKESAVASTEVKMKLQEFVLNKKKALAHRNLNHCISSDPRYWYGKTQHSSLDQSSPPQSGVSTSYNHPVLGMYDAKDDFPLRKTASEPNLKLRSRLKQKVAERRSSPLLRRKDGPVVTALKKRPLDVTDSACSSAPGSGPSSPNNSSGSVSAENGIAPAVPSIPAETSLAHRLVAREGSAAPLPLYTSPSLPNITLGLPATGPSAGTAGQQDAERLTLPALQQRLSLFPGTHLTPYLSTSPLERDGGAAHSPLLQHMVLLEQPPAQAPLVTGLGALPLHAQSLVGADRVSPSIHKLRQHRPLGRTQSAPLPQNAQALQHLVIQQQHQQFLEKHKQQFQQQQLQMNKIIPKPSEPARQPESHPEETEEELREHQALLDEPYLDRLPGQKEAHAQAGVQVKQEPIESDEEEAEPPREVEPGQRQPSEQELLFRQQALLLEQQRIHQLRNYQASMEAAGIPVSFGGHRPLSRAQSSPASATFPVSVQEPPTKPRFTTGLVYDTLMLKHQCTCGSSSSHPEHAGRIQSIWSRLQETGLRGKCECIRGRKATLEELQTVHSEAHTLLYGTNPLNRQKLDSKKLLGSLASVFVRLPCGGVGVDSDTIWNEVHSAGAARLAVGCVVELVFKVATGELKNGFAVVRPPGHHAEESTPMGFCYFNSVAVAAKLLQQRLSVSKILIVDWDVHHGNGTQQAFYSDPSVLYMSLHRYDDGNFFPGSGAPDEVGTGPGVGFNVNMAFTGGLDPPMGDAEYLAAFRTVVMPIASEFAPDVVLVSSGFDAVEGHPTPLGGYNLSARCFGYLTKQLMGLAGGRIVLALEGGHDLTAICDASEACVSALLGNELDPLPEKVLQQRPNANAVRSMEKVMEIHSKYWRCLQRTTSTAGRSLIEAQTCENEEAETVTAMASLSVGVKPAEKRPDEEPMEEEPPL

Target: T1, HDAC4 (Homo sapiens, UniProt P56524)
T1 construct: purchased Eurofins Pharma Discovery Services 2493
Assay: HDAC enzymatic activity (Eurofins)
Type: biochemical

`CN1CCc2c(c3ccccc3n2Cc2ccc(C(=O)NO)cc2)C1` [Tubastatin A] was tested, and the pIC50 was 6.04.

pIC50: −log10 of the molar value.
